Data as given in patent US5298499A, “S-2-(substituted ethylamino)ethyl phosphorothioates” (Research Triangle Institute, priority 1991, dated 1994).
Like-named read-outs stand apart in the source and are kept apart here.

Columns and labels:
[1] = system: mice; experiment: Toxicity (approximate LD50 / toxic deaths) in mice; settings: for Approximate LD50: mice, intraperitoneal
[2] = system: mice; experiment: Radiation-protective evaluation in mice, 30-day survival after lethal irradiation
[3] = system: mice; settings: taken from T. R. Sweeney; cited from earlier work
[4] = 75 mg/kg i.p., 30 min before 9.5 GY
[5] = 150 mg/kg i.p., 30 min before 9.5 GY
[6] = 37.5 mg/kg i.p., 30 min before 9.5 GY
[7] = 300 mg/kg i.p., 30 min before 10 GY
[8] = 600 mg/kg i.p., 30 min before 10 GY

Row | SMILES | Approximate LD50 [1] [mg/kg] | 30-Day Survival [2, 4] [%] | 30-Day Survival [2, 5] [%] | 30-Day Survival [2, 6] [%] | protection at the highest dose tested [2] [%] | also measured
1 | C/N=C(/S)CCNCCSP(=O)(O)O | > 250 |  |  |  |  | 
2 | NC(=S)CCNCCSP(=O)(O)O |  | 10 | 40 |  |  | 30-Day Survival ([2]; 300 mg/kg i.p., 30 min before 9.5 GY): 100%
3 | N=C(S)CCNCCSP(=O)(O)O | > 300 |  |  |  |  | 
4 | N=C(N)CCNCCSP(=O)(O)O | > 150 | 70 | 100 | 10 |  | 
5 | C/N=C(/N)CCNCCSP(=O)(O)O | > 150 |  |  |  |  | 
6 | CNC(=S)CCNCCSP(=O)(O)O |  |  |  |  | 80 | 30-Day Survival ([2]; 37.5 mg/kg i.p., 30 min before 10 GY): 0%; 30-Day Survival ([2]; 75 mg/kg i.p., 30 min before 10 GY): 0%; 30-Day Survival ([2]; 150 mg/kg i.p., 30 min before 10 GY): 80%
7 | O=P(O)(O)SCCNCCC1=NCCN1 | > 100 | 20 |  | 0 | 80 | 30-Day Survival ([2]; 100 mg/kg i.p., 30 min before 9.5 GY): 80%
8 | NC(=O)CCNCCSP(=O)(O)O | > 600 |  |  |  |  | 30-Day Survival [2, 7]: 10%; 30-Day Survival [2, 8]: 70%; toxic deaths ([1]; five mice, 600 mg/kg): no toxic deaths; Approximate LD50 [3]: 130 mg/kg
9 | CNC(=N)CCNCCSP(=O)(O)O |  | 50 | 80 | 30 | 80 | 
10 | CNC(=O)CCNCCSP(=O)(O)O | > 600 |  |  |  | 80 | 30-Day Survival [2, 7]: 20%; 30-Day Survival [2, 8]: 80%
